Earlier results, collected in publication PMC6985102 (Scientific Reports, 2020).

Design: method as in PMID 13064247
Conditions: mouse; cited from earlier work

I^131-labelled mouse albumin: I^131-labelled mouse albumin, literature comparator for half-life
half-life: 21 h
